Measured values taken from ChEMBL document CHEMBL1128642, “Discovery of an orally bioavailable NK1 receptor antagonist, (2S,3S)-(2-methoxy-5-tetrazol-1-ylbenzyl)(2-phenylpiperidin-3-yl)amine (GR203040), with potent antiemetic activity” (J Med Chem, 1995).

Tested on: Substance-P receptor (Meriones unguiculatus)
Assay: Compound was evaluated for its ex vivo binding affinity towards substance P receptor measured 15 minutes post administration to gerbil
Conditions: Gerbillinae

`COc1ccc(-n2cnnn2)cc1CN[C@H]1CCCN[C@H]1c1ccccc1` was tested, and the ED50 was 0.015 mg/kg.
